According to ChEMBL document CHEMBL4321875, “Potent, Selective, Water Soluble, Brain-Permeable EP2 Receptor Antagonist for Use in Central Nervous System Disease Models” (J Med Chem, 2020):
Activity calls are given as the source filed them. No cut-off for these calls is given here.

Biological target: T1, Transcription factor Dp-1 (Homo sapiens) (UniProt Q14186)
T1 sequence (whole entry): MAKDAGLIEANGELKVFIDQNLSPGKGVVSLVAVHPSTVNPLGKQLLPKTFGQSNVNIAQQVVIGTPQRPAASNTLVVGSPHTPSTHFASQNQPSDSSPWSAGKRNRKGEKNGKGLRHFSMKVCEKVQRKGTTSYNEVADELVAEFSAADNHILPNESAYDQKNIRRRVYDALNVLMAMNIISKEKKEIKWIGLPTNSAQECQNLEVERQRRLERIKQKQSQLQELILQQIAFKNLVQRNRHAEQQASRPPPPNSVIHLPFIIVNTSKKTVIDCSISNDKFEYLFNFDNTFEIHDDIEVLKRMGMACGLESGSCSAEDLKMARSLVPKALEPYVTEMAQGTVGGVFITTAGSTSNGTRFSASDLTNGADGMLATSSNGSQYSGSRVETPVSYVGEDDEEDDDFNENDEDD
Assay: Antagonist activity at human DP1 transfected in rat C6 cells assessed as decrease in decrease in BW245C-induced DP1 response by measuring intracellular cAMP incubated for 10 mins followed by BW245C addition and measured after 40 mins by TR-FRET assay
Assay type: cell-based

Cc1cc(C)nc(Nc2ncc(C(=O)NCCc3c(C)[nH]c4ccccc34)cn2)c1
inhibition: inactive
